From paper PMC11904993, “Humanized Candida and NanoBiT Assays Expedite Discovery of Bdf1 Bromodomain Inhibitors With Antifungal Potential” (Advanced Science, 2025)
pIC50: −log10 of the molar value.

Columns and labels:
human Brd4 BD1 = human Brd4 BD1 (Homo sapiens, UniProt O60885); test: HTRF assay, inhibition of H4ac4 peptide binding; settings: read-out: IC50 Brd4 BD1; Table S3; estimate, preliminary single-replicate HTRF assay
human Brd4 BD2 = human Brd4 BD2 (Homo sapiens, UniProt O60885); test: HTRF assay, inhibition of H4ac4 peptide binding; settings: read-out: IC50 Brd4 BD2; Table S3; estimate, preliminary single-replicate HTRF assay

Compound: COc1ccc(-c2nc3cnccn3c2Nc2ccc(Br)cc2)cc1OC
- pIC50 (human Brd4 BD1): 4.92
- pIC50 (human Brd4 BD2): < 4.70

Compound: COCCN1C(=O)c2ccccc2C(C(=O)Nc2cccc(NC(C)=O)c2)C12CCCCC2 (centres unmarked)
- pIC50 (human Brd4 BD1): < 4.70
- pIC50 (human Brd4 BD2): < 4.70

Compound: CC(=O)Nc1ccc(CCc2nc3ccc(C(=O)NCc4ccc5c(c4)OCO5)cc3[nH]2)cc1
- pIC50 (human Brd4 BD1): < 4.70
- pIC50 (human Brd4 BD2): < 4.70

Compound: COc1cccc(NC(=O)Cn2ccc3ccc(-c4nnc(C)o4)cc32)c1
- pIC50 (human Brd4 BD1): < 4.70

Compound: Cc1nnc(-c2ccc3ccn(CC(=O)Nc4cccc(Cl)c4)c3c2)o1
- pIC50 (human Brd4 BD1): < 4.70

Compound: CC(=O)c1cccc(NC(=O)Cn2cccc2-c2nc(-c3ccc4c(c3)OCO4)no2)c1
- pIC50 (human Brd4 BD1): < 4.70

Compound: CC(=O)Nc1ccc(Cc2nc(-c3cccc(-c4ccn[nH]4)c3)no2)cc1
- pIC50 (human Brd4 BD1): < 4.70

Compound: COc1nccnc1NC1CCN(C(=O)c2ccncc2)CC1
- pIC50 (human Brd4 BD2): < 4.70

Compound: COc1cc2nc(C(=O)N3CCCCC3)cc(Nc3ccc(Br)cc3)c2cc1OC
- pIC50 (human Brd4 BD1): < 4.70
- pIC50 (human Brd4 BD2): < 4.70

Compound: COC(=O)c1ccc(NC(=O)C2CC(=O)N(c3ccc4c(c3)CCN4C(C)=O)C2)cc1 (centres unmarked)
- pIC50 (human Brd4 BD1): < 4.70

Compound: CCc1nn2c(CNC(=O)c3cccc(OC)c3)c(-c3ccccc3)nc2s1
- pIC50 (human Brd4 BD2): < 4.70

Compound: CCC(C)NC(=O)Nc1cc2c(cc1Oc1ccccc1)n(C)c(=O)n2C (centres unmarked)
- pIC50 (human Brd4 BD1): 4.89
- pIC50 (human Brd4 BD2): 5.55

Compound: CC(=O)Nc1ccc(CCc2nc3ccc(C(=O)NCc4ccc(C)o4)cc3[nH]2)cc1
- pIC50 (human Brd4 BD1): < 4.70

Compound: CCC(=O)Nc1ccc(CCc2nc3ccc(C(=O)NCc4ccc(C)o4)cc3[nH]2)cc1
- pIC50 (human Brd4 BD1): < 4.70

Compound: Cn1nccc1C(=O)NCc1ccc(-c2nc(-c3ccc(F)cc3)no2)s1
- pIC50 (human Brd4 BD1): < 4.70
- pIC50 (human Brd4 BD2): < 4.70

Compound: COC(=O)c1ccccc1Nc1c(-c2ccc(O)cc2)nc2cnccn12
- pIC50 (human Brd4 BD1): < 4.70
- pIC50 (human Brd4 BD2): < 4.70
